Experimental data: patent publication US6358947B1 (American Home Products Corporation, priority 1999, dated 2002)

Sequences of proteins named here, by UniProt entry; tags and fusion partners are left off. A change or cut given only in a name is not applied to a line headed by its entry.
UniProt P10275: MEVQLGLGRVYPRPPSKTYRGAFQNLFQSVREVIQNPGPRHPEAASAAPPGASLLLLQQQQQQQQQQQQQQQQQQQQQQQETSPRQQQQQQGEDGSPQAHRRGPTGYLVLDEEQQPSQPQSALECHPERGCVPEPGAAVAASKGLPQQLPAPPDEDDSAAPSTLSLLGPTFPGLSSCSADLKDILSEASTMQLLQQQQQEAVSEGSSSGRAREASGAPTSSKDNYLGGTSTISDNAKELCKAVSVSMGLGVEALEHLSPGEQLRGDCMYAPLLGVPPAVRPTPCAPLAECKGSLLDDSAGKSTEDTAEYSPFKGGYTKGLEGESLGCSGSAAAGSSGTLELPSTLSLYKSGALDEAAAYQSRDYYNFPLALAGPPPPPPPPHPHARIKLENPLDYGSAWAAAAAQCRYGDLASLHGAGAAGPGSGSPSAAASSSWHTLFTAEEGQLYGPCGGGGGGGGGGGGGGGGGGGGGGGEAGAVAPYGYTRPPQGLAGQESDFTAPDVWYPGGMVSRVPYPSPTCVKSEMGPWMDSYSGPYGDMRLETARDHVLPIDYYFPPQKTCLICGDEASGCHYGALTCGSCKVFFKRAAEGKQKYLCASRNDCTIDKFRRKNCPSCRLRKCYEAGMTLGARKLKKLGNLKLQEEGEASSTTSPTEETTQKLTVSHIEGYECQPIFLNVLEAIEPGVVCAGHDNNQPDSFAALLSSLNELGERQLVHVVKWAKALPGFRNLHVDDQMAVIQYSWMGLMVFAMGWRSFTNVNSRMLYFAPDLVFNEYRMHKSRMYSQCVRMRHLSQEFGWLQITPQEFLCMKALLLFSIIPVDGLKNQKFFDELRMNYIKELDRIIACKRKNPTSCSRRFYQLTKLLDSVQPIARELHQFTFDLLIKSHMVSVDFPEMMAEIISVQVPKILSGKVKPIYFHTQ

How the values were obtained:
[1] = target: T1, hGR (Homo sapiens, UniProt P04150); test: Cotransfection assay, GR antagonist; details: read-out: GR Potency Antag
T1 sequence (P04150 1-777): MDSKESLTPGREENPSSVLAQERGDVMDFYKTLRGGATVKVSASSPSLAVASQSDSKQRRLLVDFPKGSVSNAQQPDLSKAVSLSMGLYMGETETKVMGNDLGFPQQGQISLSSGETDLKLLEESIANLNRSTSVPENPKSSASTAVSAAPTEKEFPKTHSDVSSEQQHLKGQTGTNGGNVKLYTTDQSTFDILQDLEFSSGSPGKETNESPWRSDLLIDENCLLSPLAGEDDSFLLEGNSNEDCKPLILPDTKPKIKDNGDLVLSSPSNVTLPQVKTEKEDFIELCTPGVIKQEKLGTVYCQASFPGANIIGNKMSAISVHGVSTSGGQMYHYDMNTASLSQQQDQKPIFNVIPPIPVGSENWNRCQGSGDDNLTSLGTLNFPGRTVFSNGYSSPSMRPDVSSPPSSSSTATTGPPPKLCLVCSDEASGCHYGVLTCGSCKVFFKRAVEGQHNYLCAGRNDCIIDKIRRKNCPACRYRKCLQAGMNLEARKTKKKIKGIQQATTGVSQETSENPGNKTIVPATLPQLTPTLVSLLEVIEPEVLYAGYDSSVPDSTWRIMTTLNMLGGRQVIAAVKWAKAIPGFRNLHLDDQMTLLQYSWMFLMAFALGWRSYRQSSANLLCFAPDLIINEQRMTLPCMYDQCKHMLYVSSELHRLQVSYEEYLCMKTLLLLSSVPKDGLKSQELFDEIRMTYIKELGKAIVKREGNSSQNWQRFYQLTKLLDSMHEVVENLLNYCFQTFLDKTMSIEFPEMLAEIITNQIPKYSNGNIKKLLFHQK

[2] = target: T2, hAR (Homo sapiens, UniProt P10275); test: Cotransfection assay, AR agonist; details: read-out: AR Potency Agon
[3] = target: T3, hMR (Homo sapiens, UniProt P08235); test: Cotransfection assay, MR antagonist; details: read-out: MR Potency Antag
T3 sequence (P08235 1-984): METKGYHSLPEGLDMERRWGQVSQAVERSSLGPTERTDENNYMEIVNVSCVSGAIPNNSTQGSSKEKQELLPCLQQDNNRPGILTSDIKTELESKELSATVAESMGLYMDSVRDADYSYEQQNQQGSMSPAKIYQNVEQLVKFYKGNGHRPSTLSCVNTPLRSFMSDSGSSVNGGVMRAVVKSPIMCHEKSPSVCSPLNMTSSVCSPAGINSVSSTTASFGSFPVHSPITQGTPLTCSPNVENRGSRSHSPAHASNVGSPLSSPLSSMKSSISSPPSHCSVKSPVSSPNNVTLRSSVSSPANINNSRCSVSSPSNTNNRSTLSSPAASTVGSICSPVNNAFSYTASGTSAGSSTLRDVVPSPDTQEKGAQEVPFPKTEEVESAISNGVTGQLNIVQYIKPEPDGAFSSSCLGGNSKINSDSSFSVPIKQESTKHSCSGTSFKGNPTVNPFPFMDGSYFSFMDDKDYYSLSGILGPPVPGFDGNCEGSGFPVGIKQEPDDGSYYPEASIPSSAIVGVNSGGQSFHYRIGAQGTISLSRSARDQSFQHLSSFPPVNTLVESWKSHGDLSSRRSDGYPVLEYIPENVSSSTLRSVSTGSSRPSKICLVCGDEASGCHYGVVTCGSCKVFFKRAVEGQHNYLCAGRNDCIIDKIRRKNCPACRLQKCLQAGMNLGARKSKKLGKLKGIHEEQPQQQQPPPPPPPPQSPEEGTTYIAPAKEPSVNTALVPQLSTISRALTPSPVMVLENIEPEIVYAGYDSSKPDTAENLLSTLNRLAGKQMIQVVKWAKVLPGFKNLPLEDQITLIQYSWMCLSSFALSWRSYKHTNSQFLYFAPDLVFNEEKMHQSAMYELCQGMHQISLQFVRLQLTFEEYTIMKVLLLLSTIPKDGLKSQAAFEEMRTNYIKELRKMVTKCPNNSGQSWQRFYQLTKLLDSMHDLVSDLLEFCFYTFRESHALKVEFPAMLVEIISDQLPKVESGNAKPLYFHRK

[4] = target: T4, human PR (Homo sapiens, UniProt P06401); test: Cotransfection assay, PR agonist, CV-1 cells; details: read-out: PR Potency Agon; Table 2
T4 sequence (P06401 1-933): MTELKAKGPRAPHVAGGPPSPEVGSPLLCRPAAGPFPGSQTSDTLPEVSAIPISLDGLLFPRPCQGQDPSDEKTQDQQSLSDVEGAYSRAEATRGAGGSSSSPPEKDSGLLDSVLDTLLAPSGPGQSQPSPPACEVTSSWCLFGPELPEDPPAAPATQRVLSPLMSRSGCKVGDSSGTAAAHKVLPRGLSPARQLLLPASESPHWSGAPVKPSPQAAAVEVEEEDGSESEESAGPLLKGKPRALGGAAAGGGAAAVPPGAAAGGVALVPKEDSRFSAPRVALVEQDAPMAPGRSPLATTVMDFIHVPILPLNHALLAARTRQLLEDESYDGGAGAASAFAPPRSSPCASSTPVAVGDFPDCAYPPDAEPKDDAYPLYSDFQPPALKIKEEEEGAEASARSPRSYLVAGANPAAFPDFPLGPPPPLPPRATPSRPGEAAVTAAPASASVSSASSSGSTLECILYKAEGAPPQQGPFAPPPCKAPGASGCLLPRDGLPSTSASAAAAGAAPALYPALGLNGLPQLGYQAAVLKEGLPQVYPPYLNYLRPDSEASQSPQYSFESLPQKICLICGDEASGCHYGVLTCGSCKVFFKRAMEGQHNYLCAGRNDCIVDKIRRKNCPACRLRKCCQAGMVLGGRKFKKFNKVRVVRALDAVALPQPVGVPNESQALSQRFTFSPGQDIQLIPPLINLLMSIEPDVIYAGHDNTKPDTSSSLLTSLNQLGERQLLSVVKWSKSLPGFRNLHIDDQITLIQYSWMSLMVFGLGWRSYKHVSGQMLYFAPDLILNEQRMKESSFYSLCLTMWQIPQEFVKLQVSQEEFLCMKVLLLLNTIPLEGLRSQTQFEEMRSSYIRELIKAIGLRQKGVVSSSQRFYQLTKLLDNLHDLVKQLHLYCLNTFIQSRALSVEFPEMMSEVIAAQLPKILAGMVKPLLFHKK

[5] = target: T2, hAR; test: Cotransfection assay, AR antagonist; details: read-out: AR Potency Antag
[6] = target: T4, human PR; test: Cotransfection assay, PR antagonist, CV-1 cells; details: read-out: PR Potency Antag; Table 2

CCCCN(C)C(=O)CCCCCCCCCC[C@@H]1Cc2cc(O)ccc2[C@H]2CC[C@]3(C)[C@@H](O)CC[C@H]3[C@H]12 [ICI 164, reference compound]
> 10 µM: IC50 [1] | EC50 [2] | IC50 [3] | EC50 [4] | IC50 [5] | IC50 [6]
